Values of other authors as cited in patent US10753947B2, “Methods for screening voltage-gated proteins” (D.E. Shaw Research, LLC, priority 2012, dated 2020).

Chains of the proteins cited; added tags and fusions are not shown.
UniProt P22001, whole entry: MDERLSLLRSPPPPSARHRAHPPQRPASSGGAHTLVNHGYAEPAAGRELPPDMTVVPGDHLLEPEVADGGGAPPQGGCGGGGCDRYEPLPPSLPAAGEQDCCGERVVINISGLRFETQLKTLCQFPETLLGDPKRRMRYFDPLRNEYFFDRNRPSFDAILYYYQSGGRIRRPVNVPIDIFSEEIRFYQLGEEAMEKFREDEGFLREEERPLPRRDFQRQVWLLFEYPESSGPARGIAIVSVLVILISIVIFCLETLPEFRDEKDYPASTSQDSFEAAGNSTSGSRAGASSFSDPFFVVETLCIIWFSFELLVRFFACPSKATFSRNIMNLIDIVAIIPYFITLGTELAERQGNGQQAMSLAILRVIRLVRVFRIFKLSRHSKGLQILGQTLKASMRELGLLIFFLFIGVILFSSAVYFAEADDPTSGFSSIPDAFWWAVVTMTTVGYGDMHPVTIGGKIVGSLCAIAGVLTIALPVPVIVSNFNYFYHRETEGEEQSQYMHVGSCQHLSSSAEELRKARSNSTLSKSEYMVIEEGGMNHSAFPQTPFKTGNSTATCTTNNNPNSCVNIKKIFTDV

Target: Kv1.3 (Homo sapiens, UniProt P22001)
Conditions: Table 4; read-out: IC50 Kv1.3; cited from earlier work

COc1ccc(CCCN2CCC(COC(c3ccccc3)c3ccccc3)CC2)cc1 [UK-78282]
IC50: 0.28 µM
